Measured values taken from article PMC4051630, “A Comparison of Protein Kinases Inhibitor Screening Methods Using Both Enzymatic Activity and Binding Affinity Determination” (PLoS ONE, 2014).

The chains behind the UniProt entries cited, without tags or fusion partners. Residues count along the entry.
UniProt Q9P286, 449-700 limits assumed: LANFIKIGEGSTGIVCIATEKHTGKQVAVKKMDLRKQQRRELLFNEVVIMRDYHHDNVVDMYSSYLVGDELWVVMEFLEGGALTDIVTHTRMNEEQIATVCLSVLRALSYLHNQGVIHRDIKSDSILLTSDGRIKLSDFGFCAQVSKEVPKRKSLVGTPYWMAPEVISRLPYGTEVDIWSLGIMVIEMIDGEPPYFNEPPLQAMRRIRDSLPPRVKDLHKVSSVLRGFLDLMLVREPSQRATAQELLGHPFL
UniProt Q14289, 425-683 limits assumed: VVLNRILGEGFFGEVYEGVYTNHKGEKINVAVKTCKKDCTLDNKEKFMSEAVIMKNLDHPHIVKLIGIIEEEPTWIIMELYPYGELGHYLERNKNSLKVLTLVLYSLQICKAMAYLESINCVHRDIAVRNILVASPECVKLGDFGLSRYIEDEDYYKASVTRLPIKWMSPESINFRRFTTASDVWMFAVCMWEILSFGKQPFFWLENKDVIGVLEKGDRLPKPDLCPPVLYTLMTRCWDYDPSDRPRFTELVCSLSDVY
UniProt Q9Y243, 122-479: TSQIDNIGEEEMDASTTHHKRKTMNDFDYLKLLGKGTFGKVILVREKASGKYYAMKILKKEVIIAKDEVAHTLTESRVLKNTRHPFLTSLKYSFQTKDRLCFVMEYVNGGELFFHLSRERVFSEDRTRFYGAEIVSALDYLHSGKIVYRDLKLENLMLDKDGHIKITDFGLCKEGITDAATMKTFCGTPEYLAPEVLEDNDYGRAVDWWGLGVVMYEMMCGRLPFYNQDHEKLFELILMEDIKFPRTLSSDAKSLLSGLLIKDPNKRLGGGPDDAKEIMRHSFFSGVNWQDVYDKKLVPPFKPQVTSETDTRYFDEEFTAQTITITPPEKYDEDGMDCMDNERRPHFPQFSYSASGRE

What was measured:
Assay in all cases: Differential Scanning Fluorimetry (DSF) Tm shift
Type in all cases: binding
Conditions in all cases: 2 µM protein, 10 µM inhibitor, average of 3 experiments, each in duplicate
PAK7 Catalytic Domain = PAK7 Catalytic Domain (Homo sapiens, UniProt Q9P286); set-up: For all of them, we expressed and purified the catalytic domain separately; His-tag; made in house; host or cells: Escherichia coli
[1] = target: T1, STK3 Catalytic domain+SARAH (Homo sapiens, UniProt Q13188); set-up: for 8, we also made a longer version containing one or more additional domains; His-tag; made in house; host or cells: Escherichia coli
T1 sequence (Q13188 1-491): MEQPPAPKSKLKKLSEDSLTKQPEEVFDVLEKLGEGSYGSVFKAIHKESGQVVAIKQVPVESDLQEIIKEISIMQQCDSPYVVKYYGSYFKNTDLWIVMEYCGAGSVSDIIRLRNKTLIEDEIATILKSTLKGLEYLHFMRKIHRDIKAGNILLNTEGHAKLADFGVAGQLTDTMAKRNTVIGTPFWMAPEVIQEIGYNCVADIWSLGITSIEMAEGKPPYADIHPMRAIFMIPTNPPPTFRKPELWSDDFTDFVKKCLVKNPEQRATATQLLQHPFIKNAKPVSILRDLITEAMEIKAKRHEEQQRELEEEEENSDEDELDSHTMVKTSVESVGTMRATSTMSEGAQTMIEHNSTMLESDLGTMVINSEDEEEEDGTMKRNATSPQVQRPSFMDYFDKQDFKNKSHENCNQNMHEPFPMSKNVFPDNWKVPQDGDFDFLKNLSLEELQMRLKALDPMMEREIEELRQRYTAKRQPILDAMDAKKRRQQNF

[2] = target: SRC Catalytic Domain+SH2+SH3 (Homo sapiens, UniProt P12931)
SRC Catalytic Domain = SRC Catalytic Domain (Homo sapiens, UniProt P12931); set-up: For all of them, we expressed and purified the catalytic domain separately; His-tag; made in house; host or cells: Escherichia coli
FAK2 Catalytic Domain = target: T2, FAK2 Catalytic Domain (Homo sapiens, UniProt Q14289)
T2 construct: For all of them, we expressed and purified the catalytic domain separately; His-tag; made in house; host or cells: Escherichia coli

AKT3 Catalytic Domain = AKT3 Catalytic Domain (Homo sapiens, UniProt Q9Y243); set-up: AKT3 (Q9Y243); CD; His-tag; made in house; host or cells: Escherichia coli
STK3 Catalytic Domain = target: T3, STK3 Catalytic Domain (Homo sapiens, UniProt Q13188); set-up: For all of them, we expressed and purified the catalytic domain separately; His-tag; made in house; host or cells: Escherichia coli
T3 sequence (Q13188 27-278 limits assumed): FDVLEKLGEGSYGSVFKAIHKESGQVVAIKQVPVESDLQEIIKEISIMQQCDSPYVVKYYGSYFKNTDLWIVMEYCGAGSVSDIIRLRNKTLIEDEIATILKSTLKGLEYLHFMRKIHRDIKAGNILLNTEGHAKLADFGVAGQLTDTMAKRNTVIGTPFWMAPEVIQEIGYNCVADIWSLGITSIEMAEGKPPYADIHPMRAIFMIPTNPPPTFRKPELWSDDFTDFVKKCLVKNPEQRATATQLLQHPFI

## CO[C@@H]1[C@H](N(C)C(=O)c2ccccc2)C[C@H]2O[C@]1(C)n1c3ccccc3c3c4c(c5c6ccccc6n2c5c31)C(=O)NC4
PAK7 Catalytic Domain
  Melting temperature (Tm) shift: 0.5 degrees Celcius
[1]
  Melting temperature (Tm) shift: 6.9 degrees Celcius
[2]
  Melting temperature (Tm) shift: 1.1 degrees Celcius
SRC Catalytic Domain
  Melting temperature (Tm) shift: 1.2 degrees Celcius
FAK2 Catalytic Domain
  Melting temperature (Tm) shift: 3.4 degrees Celcius
AKT3 Catalytic Domain
  Melting temperature (Tm) shift: 0.9 degrees Celcius
STK3 Catalytic Domain
  Melting temperature (Tm) shift: 4.1 degrees Celcius
